The source of these data is patent publication US9649378B2, “Cancer methods” (priority 2010, dated 2017).

In the assay the test system is phospho-ERK. Nature of the assay: EGF induced phospho-ERK activation in OPCML transfected (BKS2.1) and control (SKOBS-V1.2) cells. Conditions: OPCML transfected versus control cells.

Consider cetuximab: inhibitor of EGFR, for which the OPCML mediated sensitization result is “no sensitization”.

As for trastuzumab: anti-HER2 antibody, the OPCML mediated sensitization entry is “Lesser sensitization than for lapatinib”.
